Target: PI3Kβ (Homo sapiens (Human), UniProt P42338)
Assay: In vitro enzyme inhibition assay (Kinase Glo based enzyme activity assay)
Type: biochemical
Settings: (+) enantiomer of Example 3.06 versus the other enantiomer; assay not specified
Description: (a) In Vitro Enzyme Inhibition Assay
The inhibition of PI3Kβ, PI3Kα, PI3Kγ and PI3Kδ was evaluated in a Kinase Glo based enzyme activity assay using human recombinant enzymes. The assay measures depletion of ATP after incubation with enzyme, PIP2 and ATP plus compound. ATP at the end of the reaction is detected by addition of Kinase Glo reagent, in this the Ultra Glo™ luciferase (Promega) uses the ATP as a substrate to catalyze the mono-oxygenation of luciferin and the generation of light. A direct relationship exists between the luminescence measured with the Kinase-Glo Plus Reagent and the amount of ATP remaining in a completed kinase reaction and luminescence is inversely related to kinase activity.
Compounds in 100% DMSO were added to assay plates by acoustic dispensing. PI3Kβ was added in a Tris buffer (50 mM Tris pH7.4, 0.05% CHAPS, 2.1 mM DTT, and 10 mM MgCl2) and allowed to preincubate with compound for 20 minutes prior to addition of substrate solution containing PIP2 and ATP. The enzyme reaction was stopped after 80 minutes by the addition of Kinase Glo detection solution. Plates were left for 30 minutes at room temperature then read on a Pherastar Instrument (Luminescence ATP 384 program) setting gain on max well. […]
IC50 values were calculated using a log curve fitting to a non-linear regression package, fitting raw data to inhibitor concentration.

Amino acid sequences for entries named in this document (tags omitted). A change or cut given only in a name is not applied to a line headed by its entry.
UniProt P42338: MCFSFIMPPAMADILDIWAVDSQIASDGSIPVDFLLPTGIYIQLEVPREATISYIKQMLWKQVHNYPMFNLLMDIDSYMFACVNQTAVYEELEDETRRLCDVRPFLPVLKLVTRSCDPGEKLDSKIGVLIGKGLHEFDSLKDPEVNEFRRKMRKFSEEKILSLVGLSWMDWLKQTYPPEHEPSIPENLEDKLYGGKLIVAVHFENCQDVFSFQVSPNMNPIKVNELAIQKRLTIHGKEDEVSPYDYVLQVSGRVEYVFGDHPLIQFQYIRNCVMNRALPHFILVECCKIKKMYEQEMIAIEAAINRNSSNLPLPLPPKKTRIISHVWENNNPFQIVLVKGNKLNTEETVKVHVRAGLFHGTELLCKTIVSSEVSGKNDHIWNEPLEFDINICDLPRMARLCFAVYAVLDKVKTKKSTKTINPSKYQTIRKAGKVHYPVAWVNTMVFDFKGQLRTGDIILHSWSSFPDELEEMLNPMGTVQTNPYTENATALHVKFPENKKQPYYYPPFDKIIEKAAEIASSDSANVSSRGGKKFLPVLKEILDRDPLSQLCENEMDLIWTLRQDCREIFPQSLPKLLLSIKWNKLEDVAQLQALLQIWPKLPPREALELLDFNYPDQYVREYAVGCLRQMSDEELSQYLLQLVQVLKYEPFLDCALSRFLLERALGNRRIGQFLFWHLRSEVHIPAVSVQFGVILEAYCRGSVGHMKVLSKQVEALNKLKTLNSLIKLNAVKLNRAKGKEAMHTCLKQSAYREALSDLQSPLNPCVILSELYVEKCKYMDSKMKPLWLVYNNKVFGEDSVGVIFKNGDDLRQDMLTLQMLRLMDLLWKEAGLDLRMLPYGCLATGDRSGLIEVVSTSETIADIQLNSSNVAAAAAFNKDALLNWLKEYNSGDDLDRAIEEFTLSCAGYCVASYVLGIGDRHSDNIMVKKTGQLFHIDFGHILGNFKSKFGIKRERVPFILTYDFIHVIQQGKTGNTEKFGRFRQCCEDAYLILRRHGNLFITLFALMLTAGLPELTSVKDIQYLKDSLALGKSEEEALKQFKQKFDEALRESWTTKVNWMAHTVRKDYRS

activity of the enantiomer relative to the other enantiomer: weaker activity
Structure (SMILES): CC(Nc1cc(F)cc(F)c1)c1cc(C(=O)N(C)C)cc2c(=O)cc(N3CCOCC3)oc12 (stereo not shown) [Example 3.06a, 8-(1-(3,5-difluorophenylamino)ethyl)-N,N-dimethyl-2-morpholino-4-oxo-4H-chromene-6-carboxamide]

Reference: US9718800B2, “Chromenone derivatives” (AstraZeneca AB, priority 2009, dated 2017)
